Test results taken from patent US8222022B2, “Tri-functionalized cryptophane biosensors” (The Trustees of the University of Pennsylvania, priority 2008, dated 2012).

Assay: Aqueous solubility (visual observation of precipitation, dissolution in aqueous base)
Details: 2 mM, 100 mM NaCl

## tri-triazole propionate cryptophane [TTPC]
  pH to which the compound remained soluble: ~5.5
